{
  "source": "patent EP0938471B1",
  "about": "“THE PREPARATION AND USE OF ORTHO-SULFONAMIDO ARYL HYDROXAMIC ACIDS AS MATRIX METALLOPROTEINASE AND TACE INHIBITORS” (priority 1996, dated 1998)",
  "key": {"MMP-1": {"biological_target": "T1, MMP-1 (Homo sapiens, UniProt P03956)", "T1 sequence (P03956 100-469)": "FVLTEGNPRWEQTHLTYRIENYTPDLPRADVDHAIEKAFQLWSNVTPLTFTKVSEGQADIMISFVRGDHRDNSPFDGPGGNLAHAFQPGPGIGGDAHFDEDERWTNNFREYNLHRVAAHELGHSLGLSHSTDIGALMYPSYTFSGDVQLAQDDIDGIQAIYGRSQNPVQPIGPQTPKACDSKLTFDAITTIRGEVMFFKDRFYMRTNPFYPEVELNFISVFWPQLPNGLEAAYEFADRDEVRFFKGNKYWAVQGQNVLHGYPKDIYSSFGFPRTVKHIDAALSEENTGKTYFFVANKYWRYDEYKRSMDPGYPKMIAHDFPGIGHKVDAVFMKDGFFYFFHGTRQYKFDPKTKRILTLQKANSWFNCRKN", "assay": "MMP-1 inhibition (thiopeptide or fluorescent peptide substrate assay)", "type": "biochemical"}, "MMP-13": {"biological_target": "MMP-13 (Homo sapiens, UniProt P45452)", "assay": "MMP-13 inhibition (thiopeptide or fluorescent peptide substrate assay)", "type": "biochemical"}},
  "note": "pIC50: −log10 of the molar value.",
  "data": [
    {"molecule": "COc1ccc(S(=O)(=O)N(Cc2ccccc2)c2c(C)cccc2C(=O)NO)cc1", "note": "[Example 28, 2-[Benzyl-(4-methoxy-benzenesulfonyl)-amino]-N-hydroxy-3-methyl-benzamide]", "values": [
      {"measurement": "pIC50", "setting": "MMP-1", "value": 6.94}
    ]},
    {"molecule": "COc1ccc(S(=O)(=O)N(Cc2cccnc2)c2c(C)cccc2C(=O)NO)cc1", "note": "[Example 61, N-Hydroxy-2-[(4-methoxy-benzenesulfonyl)-pyridin-3-ylmethyl-amino]-3-methyl-benzamide]", "values": [
      {"measurement": "pIC50", "setting": "MMP-13", "value": 7.48}
    ]}
  ]
}
